Measured values reported in PubChem BioAssay (NCI).
Where “and” joins values, the source holds several entries; their conditions need not be identical. Equal entries are not always repeated. The entries are a selection whose mix differs from that of the whole data set.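 Single-dose data. Exposure time 48 hours. Values below 10 considered active.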 Calls of active or inactive are those of the source.

Key:
Experiment in all cases: NCI-60 one-dose screen, 48 h (100 = growth as untreated, 0 = no growth, -100 = all killed)
Conditions in all cases: 10 µM
HCT-15 colon = system: HCT-15 colon
HT29 colon = system: HT29 colon
SNB-75 CNS = system: SNB-75 CNS
SNB-19 CNS = system: SNB-19 CNS
U251 CNS = system: U251 CNS
PC-3 prostate = system: PC-3 prostate
SK-MEL-5 melanoma = system: SK-MEL-5 melanoma
UACC-62 melanoma = system: UACC-62 melanoma
LOX IMVI melanoma = system: LOX IMVI melanoma
SK-MEL-28 melanoma = system: SK-MEL-28 melanoma

Measured: growth

Cc1cccc(CN(CCCl)CCCl)c1
inactive: HCT-15 colon 96.6% | HT29 colon 76.2% | SNB-75 CNS 86.6% | SNB-19 CNS 96.8% | U251 CNS 76.5% | PC-3 prostate 79.4% | SK-MEL-5 melanoma 97.1% | UACC-62 melanoma 87.1% | LOX IMVI melanoma 75.8% | SK-MEL-28 melanoma 110%

O=C1CCN(Cc2ccccc2)CC1
inactive: HCT-15 colon 112% | HT29 colon 104% | SNB-75 CNS 97.8% | SNB-19 CNS 98.7% | U251 CNS 101% | PC-3 prostate 87% | SK-MEL-5 melanoma 99.8% | UACC-62 melanoma 99.7% | LOX IMVI melanoma 98.9% | SK-MEL-28 melanoma 118%

Cc1ccc(N(CCCl)CCCl)cc1
inactive: HCT-15 colon 80.9% | HT29 colon 85.8% | SNB-75 CNS 76.7% | SNB-19 CNS 66.5% | U251 CNS 67.7% | PC-3 prostate 74% | SK-MEL-5 melanoma 83.1% | UACC-62 melanoma 73.1% | LOX IMVI melanoma 45.8% | SK-MEL-28 melanoma 98.2%

Oc1ccc(N(CCCl)CCCl)cc1
inactive: HCT-15 colon 79% | HT29 colon 76.3% | SNB-75 CNS 99.4% | SNB-19 CNS 97.2% | U251 CNS 78.6% | PC-3 prostate 73.2% | SK-MEL-5 melanoma 94.3% | UACC-62 melanoma 81% | LOX IMVI melanoma 69.5% | SK-MEL-28 melanoma 111%

Cc1cccc(C(=O)N(CCCl)CCCl)c1
inactive: HCT-15 colon 91.2% | HT29 colon 100% | SNB-75 CNS 86.5% | SNB-19 CNS 104% | U251 CNS 98.9% | PC-3 prostate 91.8% | SK-MEL-5 melanoma 99% | UACC-62 melanoma 103% | LOX IMVI melanoma 103% | SK-MEL-28 melanoma 113%

C1CCNCC1.O=C(O)C(O)c1ccc(N(CCCl)CCCl)cc1 (stereo not given)
inactive: HCT-15 colon 98.7% | HT29 colon 102% | SNB-75 CNS 119% | SNB-19 CNS 95.6% | U251 CNS 100% | PC-3 prostate 86% | SK-MEL-5 melanoma 97% | UACC-62 melanoma 94.4% | LOX IMVI melanoma 95.9% | SK-MEL-28 melanoma 112%

Cc1ccc(C(=O)N(CCCl)CCCl)cc1
inactive: HCT-15 colon 94% | HT29 colon 102% | SNB-75 CNS 82.4% | SNB-19 CNS 100% | U251 CNS 98.2% | PC-3 prostate 97.7% | SK-MEL-5 melanoma 99.1% | UACC-62 melanoma 101% | LOX IMVI melanoma 92.9% | SK-MEL-28 melanoma 97%

CCOP(=O)(Cl)OCC
inactive: HCT-15 colon 103% | HT29 colon 102% | SNB-75 CNS 86.7% | SNB-19 CNS 103% | U251 CNS 107% | PC-3 prostate 92.3% | SK-MEL-5 melanoma 110% | UACC-62 melanoma 102% | LOX IMVI melanoma 101% | SK-MEL-28 melanoma 105%

N#CC(C#N)=Cc1ccc2c(c1)OCO2
inactive: HCT-15 colon 94.5% and 97.4% | HT29 colon 119% and 109% | SNB-75 CNS 110% and 96.1% | SNB-19 CNS 101% and 97.7% | U251 CNS 100% and 97% | PC-3 prostate 101% and 96.1% | SK-MEL-5 melanoma 91.1% and 97.2% | UACC-62 melanoma 107% and 97.3% | LOX IMVI melanoma 94.9% and 97.5% | SK-MEL-28 melanoma 109% and 102%

BrCCN(CCBr)c1ccc2c(c1)Cc1ccccc1-2
inactive: HCT-15 colon 50.3% | HT29 colon 47.5% | SNB-75 CNS 32.9% | SNB-19 CNS 41% | U251 CNS 22.5% | PC-3 prostate 46.4% | SK-MEL-5 melanoma 41.5% | UACC-62 melanoma 42.4% | LOX IMVI melanoma 16.4% | SK-MEL-28 melanoma 78.7%

ClCCN(CCCl)Cc1ccc2c(c1)OCO2
inactive: HCT-15 colon 86.2% | HT29 colon 77.3% | SNB-75 CNS 72.9% | SNB-19 CNS 90% | U251 CNS 67.2% | PC-3 prostate 68.7% | SK-MEL-5 melanoma 82.8% | UACC-62 melanoma 68.7% | LOX IMVI melanoma 71.1% | SK-MEL-28 melanoma 105%

O=c1[nH]cc(CN(CCCl)CCCl)c(=O)[nH]1
inactive: HCT-15 colon 103% | HT29 colon 100% | SNB-75 CNS 93.1% | SNB-19 CNS 98.3% | U251 CNS 101% | PC-3 prostate 92.7% | SK-MEL-5 melanoma 101% | UACC-62 melanoma 94.5% | LOX IMVI melanoma 99.2% | SK-MEL-28 melanoma 102%

CC(C)NP(=O)(F)NC(C)C
inactive: HCT-15 colon 109% | HT29 colon 109% | SNB-75 CNS 101% | SNB-19 CNS 104% | U251 CNS 95.1% | PC-3 prostate 97.2% | SK-MEL-5 melanoma 102% | UACC-62 melanoma 104% | LOX IMVI melanoma 98.5% | SK-MEL-28 melanoma 113%

[O-][n+]1onc(-c2ncon2)c1-c1ncon1
inactive: HCT-15 colon 26% | HT29 colon 105% | SNB-75 CNS 83.5% | SNB-19 CNS 104% | U251 CNS 108% | PC-3 prostate 102% | SK-MEL-5 melanoma 98.9% | UACC-62 melanoma 99% | LOX IMVI melanoma 52.2% | SK-MEL-28 melanoma 106%

O=C1C(=O)N(CN(CCCl)CCCl)c2ccccc21
inactive: HCT-15 colon 96.7% | HT29 colon 100% | SNB-75 CNS 89.3% | SNB-19 CNS 109% | U251 CNS 98.1% | PC-3 prostate 95.9% | SK-MEL-5 melanoma 105% | UACC-62 melanoma 100% | LOX IMVI melanoma 96.6% | SK-MEL-28 melanoma 115%
